Earlier results as cited in patent US9278956B1, “Small-molecule inhibitors of Rac1 in metastatic cancer cells” (University of Puerto Rico, priority 2012, dated 2016).

Test system: Rac
Settings: cited from earlier work

In the case of CCN(CC)CCCC(C)Nc1nc(C)cc(Nc2ccc3nc(C)cc(N)c3c2)n1 (stereo not shown) [NSC23766], the “effective concentration as Rac inhibitor” value is listed as 50 to 100 µM.
